The values that follow are results of earlier work, collected in patent US20210239702A1, “METHODS FOR PREDICTING RESPONSIVENESS OF LUNG CANCER PATIENTS TO HER2-TARGETING THERAPIES” (MEMORIAL SLOAN KETTERING CANCER CENTER, priority 2018, published 2021).

This data set has as its system HER2 IHC positive lung cancers. The note with it: six phase 2 trials; cited from earlier work.

In the case of trastuzumab: HER2-targeting antibody, the results of trials is “uniformly negative”.
